Laboratory results taken from patent publication US20250313563A1, “GLYCOGEN SYNTHASE KINASE 3 INHIBITORS AND USES THEREOF” (The Broad Institute, Inc., priority 2022, published 2025).
Like-named read-outs stand apart in the source and are kept apart here. One block for each compound: values may come before it.

Chains of the proteins cited; added tags and fusions are not shown.
UniProt P49840, whole entry: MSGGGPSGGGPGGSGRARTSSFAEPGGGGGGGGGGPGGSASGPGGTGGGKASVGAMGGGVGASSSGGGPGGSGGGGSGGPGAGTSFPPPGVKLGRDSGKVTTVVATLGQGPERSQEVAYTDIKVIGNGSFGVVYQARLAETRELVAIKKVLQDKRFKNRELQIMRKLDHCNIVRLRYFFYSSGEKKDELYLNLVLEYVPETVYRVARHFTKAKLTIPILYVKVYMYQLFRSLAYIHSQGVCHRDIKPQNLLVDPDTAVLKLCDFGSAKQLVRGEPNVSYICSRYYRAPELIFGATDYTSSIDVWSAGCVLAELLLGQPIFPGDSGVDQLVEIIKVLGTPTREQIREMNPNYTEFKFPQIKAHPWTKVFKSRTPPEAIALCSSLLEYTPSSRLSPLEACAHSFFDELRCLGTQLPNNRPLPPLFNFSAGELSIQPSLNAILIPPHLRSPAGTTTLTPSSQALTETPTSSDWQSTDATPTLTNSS
UniProt P49841, whole entry: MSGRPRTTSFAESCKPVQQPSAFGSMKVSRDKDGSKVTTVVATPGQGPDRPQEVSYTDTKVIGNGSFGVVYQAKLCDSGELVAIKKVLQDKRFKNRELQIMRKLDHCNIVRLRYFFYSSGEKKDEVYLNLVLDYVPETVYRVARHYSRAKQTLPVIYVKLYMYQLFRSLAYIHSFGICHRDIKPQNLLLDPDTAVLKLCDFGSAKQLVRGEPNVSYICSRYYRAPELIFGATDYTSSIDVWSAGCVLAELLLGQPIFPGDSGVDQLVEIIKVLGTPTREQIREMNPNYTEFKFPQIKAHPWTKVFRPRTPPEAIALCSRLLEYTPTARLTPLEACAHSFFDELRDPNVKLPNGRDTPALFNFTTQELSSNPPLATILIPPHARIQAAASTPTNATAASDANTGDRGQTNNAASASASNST

Experiments:
[1] = target: GSK3α (GST-full length GSK3α) (Homo sapiens (Human), UniProt P49840); assay: GSK3α TR-FRET kinase assay; type: biochemical
[2] = target: GSK3b (GST-full length GSK3b) (Homo sapiens (Human), UniProt P49841); assay: GSK3b TR-FRET kinase assay; type: biochemical
[3] = read-out: GSK3-A TR-FRET BIOCHEMICAL (TR-FRET), IC50, 1 nM GSK3α, 4 μM ATP, 30 minute preincubation (Table 16)
[4] = read-out: GSK3-B TR-FRET BIOCHEMICAL (TR-FRET), IC50, 1 nM GSK3b, 2 μM ATP, 30 minute preincubation (Table 16)
[5] = read-out: GSK3-A (TR-FRET 1 mM ATP), GMean, IC50, 1 mM ATP, geometric mean
[6] = read-out: GSK3-A TR-FRET BIOCHEMICAL (TR-FRET);, 1 nM GSK3α, 4 μM ATP, 30 minute preincubation, Table 16
[7] = read-out: GSK3-B (TR-FRET 1 mM ATP), GMean, IC50, 1 mM ATP, geometric mean
[8] = read-out: GSK3-B TR-FRET BIOCHEMICAL (TR-FRET);, 1 nM GSK3b, 2 μM ATP, 30 minute preincubation, Table 16
[9] = read-out: GSK3-A TR-FRET BIOCHEMICAL (TR-FRET), GMean, IC50, 1 nM GSK3α, 4 μM ATP, 30 minute preincubation, geometric mean
[10] = read-out: GSK3-B TR-FRET BIOCHEMICAL (TR-FRET), GMean, IC50, 1 nM GSK3b, 2 μM ATP, 30 minute preincubation, geometric mean
[11] = read-out: GSK3-A TR-FRET BIOCHEMICAL (TR-FRET), IC50, 1 nM GSK3α, 4 μM ATP, 30 minute preincubation
[12] = read-out: GSK3-B TR-FRET BIOCHEMICAL (TR-FRET), IC50, 1 nM GSK3b, 2 μM ATP, 30 minute preincubation

IC50 [1, 3]: < 100 nM
IC50 [2, 4]: 100 to 1000 nM
SMILES: CCC1(c2cccc(O)c2)C2=C(CC(C)(C)CC2=O)Nc2n[nH]cc21 (stereo not shown)

IC50 [1, 3]: 100 to 1000 nM
IC50 [2, 4]: 1000 to 5000 nM
SMILES: CCC1(c2cccc(N3CC4CCC(C4)C3)c2)C2=C(CC(C)(C)CC2=O)Nc2n[nH]cc21 (stereo not shown)

IC50 [1, 3]: < 100 nM
IC50 [2, 4]: 100 to 1000 nM
SMILES: CC[C@@]1(c2cccc(-c3cc(C)ncc3OC)c2)C2=C(CC(C)(C)NC2=O)Nc2n[nH]cc21

IC50 [1, 5]: > 5000 nM
IC50 [1, 6]: 1000 to 5000 nM
IC50 [2, 7]: > 5000 nM
IC50 [2, 8]: > 5000 nM
SMILES: CC[C@]1(c2cccc(-c3ncnn3C)c2)C2=C(CC(C)(C)CC2=O)Nc2n[nH]cc21

IC50 [1, 9]: < 100 nM
IC50 [2, 10]: 100 to 1000 nM
SMILES: CC[C@]1(c2cccc(-c3ccnc4cc(Cl)ccc34)c2)C2=C(CC(C)(C)NC2=O)Nc2n[nH]cc21

IC50 [1, 5]: 100 to 1000 nM
IC50 [1, 9]: < 100 nM
IC50 [2, 7]: 1000 to 5000 nM
IC50 [2, 10]: 100 to 1000 nM
SMILES: CC[C@]1(c2cccc(-c3ccnc4c(F)cccc34)c2)C2=C(CC(C)(C)NC2=O)Nc2n[nH]cc21

IC50 [1, 11]: < 100 nM
IC50 [2, 12]: < 100 nM
SMILES: CCC1(c2cccc(-c3ccncc3C)c2)C2=C(CC(C)(C)NC2=O)Nc2n[nH]c(C)c21 (stereo not shown)

IC50 [1, 6]: < 100 nM
IC50 [2, 8]: 100 to 1000 nM
SMILES: CC[C@@]1(c2cccc(-c3cc(C)nn3C)c2)C2=C(Nc3n[nH]cc31)[C@@H](F)C(C)(C)CC2=O

IC50 [1, 5]: 1000 to 5000 nM
IC50 [1, 6]: < 100 nM
IC50 [2, 7]: > 5000 nM
IC50 [2, 8]: 100 to 1000 nM
SMILES: CC[C@]1(c2cccc(-c3ccnc(C)c3)c2)C2=C(CC(C)(C)[C@H](F)C2=O)Nc2n[nH]cc21

IC50 [1, 9]: < 100 nM
IC50 [2, 10]: < 100 nM
SMILES: CCC1(c2cccc(C(F)(F)F)c2)C2=C(CC(C)(C)CC2=O)Nc2n[nH]c(C)c21 (stereo not shown)

IC50 [1, 9]: < 100 nM
IC50 [2, 10]: 100 to 1000 nM
SMILES: CC[C@@]1(c2cccc(-c3c4c(cn3C)CCCC4)c2)C2=C(CC(C)(C)NC2=O)Nc2n[nH]cc21

IC50 [1, 3]: 100 to 1000 nM
IC50 [2, 4]: 1000 to 5000 nM
SMILES: CC[C@]1(c2cccc(OC)c2)C2=C(CC(C)(C)CC2=O)Nc2n[nH]c(C(F)(F)F)c21 (single isomer, unassigned)

IC50 [1, 3]: 100 to 1000 nM
IC50 [2, 4]: > 5000 nM
SMILES: CC[C@]1(c2cccc(C(F)(F)F)c2)C2=C(CCN(c3ccccn3)C2=O)Nc2n[nH]cc21

IC50 [1, 9]: 100 to 1000 nM
IC50 [2, 10]: 100 to 1000 nM
SMILES: CC[C@@]1(c2cccc(Cl)c2)C2=C(CC(C)(C)CC2=O)Nc2n[nH]c(Br)c21

IC50 [1, 6]: > 5000 nM
IC50 [2, 8]: > 5000 nM
SMILES: CC[C@]1(c2cccc(-c3ccnc(O)c3)c2)C2=C(CC(C)(C)CC2=O)Nc2n[nH]cc21

IC50 [1, 9]: 100 to 1000 nM
IC50 [2, 10]: 100 to 1000 nM
SMILES: CC[C@]1(c2cccc(-c3cnn4c3CCCC4)c2)C2=C(CC(C)(C)NC2=O)Nc2n[nH]c(C(F)(F)F)c21

IC50 [1, 9]: 100 to 1000 nM
IC50 [2, 10]: > 5000 nM
SMILES: CC[C@]1(c2cccc(-c3ccnc(OC)c3F)c2)C2=C(CC(C)(C)NC2=O)Nc2n[nH]cc21

IC50 [1, 6]: < 100 nM
IC50 [2, 8]: 100 to 1000 nM
SMILES: CCC1(c2cccc(N(C)c3cc(C)cc(C)n3)c2)C2=C(CC(C)(C)CC2=O)Nc2n[nH]cc21 (stereo not shown)

IC50 [1, 6]: < 100 nM
IC50 [2, 8]: 100 to 1000 nM
SMILES: CCC1(c2cccc(C(C)c3ncccn3)c2)C2=C(CC(C)(C)CC2=O)Nc2n[nH]cc21 (stereo not shown)

IC50 [1, 11]: 1000 to 5000 nM
IC50 [2, 12]: > 5000 nM
SMILES: CC[C@]1(c2cccc(C(F)(F)F)c2)C2=C(CN(Cc3ccccc3)C2=O)Nc2n[nH]cc21

IC50 [1, 6]: 100 to 1000 nM
IC50 [2, 8]: 1000 to 5000 nM
SMILES: CC[C@]1(c2cccc(-c3c(C)nnn3C)c2)C2=C(CC(C)(C)CC2=O)Nc2n[nH]cc21

IC50 [1, 3]: 1000 to 5000 nM
IC50 [2, 4]: > 5000 nM
SMILES: CC[C@@]1(c2cccc(Oc3ncccn3)c2)C2=C(CC(C)(C)NC2=O)Nc2n[nH]c(F)c21

IC50 [1, 5]: 100 to 1000 nM
IC50 [1, 3]: < 100 nM
IC50 [2, 7]: > 5000 nM
IC50 [2, 4]: 100 to 1000 nM
SMILES: CC[C@]1(c2cccc(Oc3ncccn3)c2)C2=C(CC(C)(C)NC2=O)Nc2n[nH]c(F)c21

IC50 [1, 6]: < 100 nM
IC50 [2, 8]: < 100 nM
SMILES: CCC1(c2cccc(-c3ccncc3O)c2)C2=C(CC(C)(C)CC2=O)Nc2n[nH]c(C)c21 (stereo not shown)

IC50 [1, 3]: < 100 nM
IC50 [2, 4]: 100 to 1000 nM
SMILES: CC[C@]1(c2cccc(-c3cnn4cc(F)cc(F)c34)c2)C2=C(CC(C)(C)NC2=O)Nc2n[nH]cc21

IC50 [1, 9]: 100 to 1000 nM
IC50 [2, 10]: < 100 nM
SMILES: CC(C)(C)Cc1[nH]nc2c1[C@]1(CCc3cccc(F)c31)C1=C(CC(C)(C)CC1=O)N2

IC50 [1, 9]: 1000 to 5000 nM
IC50 [2, 10]: > 5000 nM
SMILES: CC[C@@]1(c2cccc(-c3ccnn3C)c2)C2=C(C[C@@]3(CCCOC3)NC2=O)Nc2n[nH]cc21

IC50 [1, 6]: < 100 nM
IC50 [2, 8]: 100 to 1000 nM
SMILES: CCc1cccc(C2(CC)C3=C(CC(C)(C)CC3=O)Nc3n[nH]cc32)c1 (stereo not shown) [Compound 949391]

IC50 [1, 9]: 100 to 1000 nM
IC50 [2, 10]: 1000 to 5000 nM
SMILES: CC[C@]1(c2cccc(-c3ccncc3C)c2)C2=C(C[C@]3(CCCOC3)NC2=O)Nc2n[nH]cc21

IC50 [1, 6]: < 100 nM
IC50 [2, 8]: 100 to 1000 nM
SMILES: CC[C@]1(c2cccc(C(F)(F)F)c2)C2=C(Nc3n[nH]cc31)C(C)(C)N(C)C2=O

IC50 [1, 9]: 100 to 1000 nM
IC50 [2, 10]: 100 to 1000 nM
SMILES: CC[C@@]1(c2cccc(Br)c2)C2=C(C[C@H](C)CC2=O)Nc2n[nH]c(C(F)(F)F)c21

IC50 [1, 5]: 100 to 1000 nM
IC50 [1, 9]: < 100 nM
IC50 [2, 7]: 1000 to 5000 nM
IC50 [2, 10]: < 100 nM
SMILES: CC[C@]1(c2cccc(-c3c(C)cncc3C)c2)C2=C(CC(C)(C)NC2=O)Nc2n[nH]cc21

IC50 [1, 6]: 100 to 1000 nM
IC50 [2, 8]: 1000 to 5000 nM
SMILES: CC[C@]1(c2cccc(-c3cc[n+]([O-])cc3[S@+](C)[O-])c2)C2=C(CC(C)(C)CC2=O)Nc2n[nH]cc21

IC50 [1, 3]: < 100 nM
IC50 [2, 4]: < 100 nM
SMILES: CC[C@@]1(c2cccc(-c3cc(C)ncc3F)c2)C2=C(CC(C)(C)NC2=O)Nc2n[nH]c(C)c21

IC50 [1, 9]: < 100 nM
IC50 [2, 10]: 100 to 1000 nM
SMILES: CCC1(c2cccc(COC)c2)C2=C(CC(C)(C)CC2=O)Nc2n[nH]cc21 (stereo not shown)

IC50 [1, 3]: < 100 nM
IC50 [2, 4]: < 100 nM
SMILES: CCC1(c2cccc(C(F)(F)F)c2)C2=C(CC3(CCC3)NC2=O)Nc2n[nH]cc21 (stereo not shown)

IC50 [1, 6]: < 100 nM
IC50 [2, 8]: < 100 nM
SMILES: CC[C@@]1(c2cccc(Oc3cncnc3)c2)C2=C(CC(C)(C)CC2=O)Nc2n[nH]cc21

IC50 [1, 6]: 100 to 1000 nM
IC50 [2, 8]: 1000 to 5000 nM
SMILES: CC[C@]1(c2cccc(-c3ccncc3C)c2)C2=C(CC(C)(C)CC2=O)Nc2n[nH]cc21 [Compound 913047]

IC50 [1, 9]: 100 to 1000 nM
IC50 [2, 10]: 100 to 1000 nM
SMILES: CC1(C)CC(=O)C2=C(C1)Nc1n[nH]c(CCC(F)(F)F)c1[C@]21CCc2c(F)cccc21

IC50 [1, 11]: 1000 to 5000 nM
IC50 [2, 12]: > 5000 nM
SMILES: CC[C@@]1(c2cccc(-c3ccnc(C)c3)c2)C2=C(C[C@H](C)NC2=O)Nc2n[nH]cc21

IC50 [1, 5]: 100 to 1000 nM
IC50 [1, 9]: < 100 nM
IC50 [2, 7]: 1000 to 5000 nM
IC50 [2, 10]: < 100 nM
SMILES: CCC1(c2cccc(N(C)c3ncccn3)c2)C2=C(CC(C)(C)NC2=O)Nc2n[nH]c(F)c21 (stereo not shown)

IC50 [1, 9]: > 5000 nM
IC50 [2, 10]: > 5000 nM
SMILES: CC[C@@]1(c2cccc(Br)c2)C2=C(C[C@@H](C(F)(F)F)CC2=O)Nc2n[nH]cc21

IC50 [1, 5]: < 100 nM
IC50 [1, 3]: < 100 nM
IC50 [2, 7]: 100 to 1000 nM
IC50 [2, 4]: < 100 nM
SMILES: CC[C@@]1(c2cccc(-c3cn(C)nc3C)c2)C2=C(CC(C)(C)NC2=O)Nc2n[nH]c(C(F)F)c21

IC50 [1, 9]: < 100 nM
IC50 [2, 10]: 100 to 1000 nM
SMILES: CCC1(c2cccc(Cl)c2)C2=C(CC(C)(C)CC2=O)Nc2n[nH]c(C)c21 (stereo not shown) [Compound 790611]

IC50 [1, 11]: < 100 nM
IC50 [2, 12]: < 100 nM
SMILES: CC[C@@]1(c2cccc(C(F)(F)F)c2)C2=C(Nc3n[nH]cc31)[C@@H](C)CN(C)C2=O

IC50 [1, 5]: < 100 nM
IC50 [1, 9]: < 100 nM
IC50 [2, 7]: < 100 nM
IC50 [2, 10]: < 100 nM
SMILES: CC[C@]1(c2cccc(S(C)(=O)=O)c2)C2=C(CC(C)(C)NC2=O)Nc2n[nH]c(C(F)(F)F)c21

IC50 [1, 9]: < 100 nM
IC50 [2, 10]: 100 to 1000 nM
SMILES: CC[C@]1(c2cccc(C)c2)C2=C(CC3(CCCC3)CC2=O)Nc2n[nH]cc21

IC50 [1, 11]: 100 to 1000 nM
IC50 [2, 12]: 1000 to 5000 nM
SMILES: CCC1(c2cccc(N3CCCC3)c2)C2=C(CC(C)(C)NC2=O)Nc2n[nH]cc21 (stereo not shown)
